This is an account of results in paper PMC11768664 (Viruses, 2024).

For test [1], the system named is HeLa human cervical cancer cells. Put plainly: Growth inhibition (proliferation) MTT assay on HeLa cells. The class given is cell-based. The note with it: 96 h (Figure 1 legend; table footnote prints 120 h). Background: Tetrazolium assays rely on reduction of a dye to a coloured formazan, in cell work by metabolically active cells.
For test [2] the test system is unchanged. Description: Combination growth inhibition assay and Combination Index on HeLa cells. The class given is cell-based. The note with it: preliminary experiment turmeric plus carrageenan; after sonication; 96 h; MTT; read-out: IC50 alone on HeLa cells.

The IC50 is the concentration at which inhibition is half-maximal. As to lambda carrageenan, the “IC50, growth inhibitory activity on HeLa cells” value in test [1] is reported as “greater than 100 µg/mL”. In test [2], the half-inhibitory concentration (IC50) is approximately 2000 nM.
